Results: paper PMC8621217, “New Uncharged 2-Thienostilbene Oximes as Reactivators of Organophosphate-Inhibited Cholinesterases” (2021)

Amino acid sequences for entries named in this document (tags omitted). Residues count along the entry.
UniProt P06276, 29-602 limits assumed: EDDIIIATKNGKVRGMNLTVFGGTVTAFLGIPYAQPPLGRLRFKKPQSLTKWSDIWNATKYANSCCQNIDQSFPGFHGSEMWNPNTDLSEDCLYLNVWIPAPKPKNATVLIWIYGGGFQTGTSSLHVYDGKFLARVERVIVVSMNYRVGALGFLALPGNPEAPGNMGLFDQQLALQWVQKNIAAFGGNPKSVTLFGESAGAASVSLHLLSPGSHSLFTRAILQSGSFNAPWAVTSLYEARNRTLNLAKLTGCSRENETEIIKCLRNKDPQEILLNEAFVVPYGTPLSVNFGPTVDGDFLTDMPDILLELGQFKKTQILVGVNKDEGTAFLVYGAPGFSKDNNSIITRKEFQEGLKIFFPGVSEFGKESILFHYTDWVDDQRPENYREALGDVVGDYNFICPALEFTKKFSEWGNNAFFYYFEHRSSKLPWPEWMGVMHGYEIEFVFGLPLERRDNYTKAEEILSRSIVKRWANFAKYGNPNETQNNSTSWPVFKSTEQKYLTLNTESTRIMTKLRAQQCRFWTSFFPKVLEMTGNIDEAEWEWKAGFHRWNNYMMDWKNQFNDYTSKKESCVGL
UniProt P22303, 32-614 limits assumed: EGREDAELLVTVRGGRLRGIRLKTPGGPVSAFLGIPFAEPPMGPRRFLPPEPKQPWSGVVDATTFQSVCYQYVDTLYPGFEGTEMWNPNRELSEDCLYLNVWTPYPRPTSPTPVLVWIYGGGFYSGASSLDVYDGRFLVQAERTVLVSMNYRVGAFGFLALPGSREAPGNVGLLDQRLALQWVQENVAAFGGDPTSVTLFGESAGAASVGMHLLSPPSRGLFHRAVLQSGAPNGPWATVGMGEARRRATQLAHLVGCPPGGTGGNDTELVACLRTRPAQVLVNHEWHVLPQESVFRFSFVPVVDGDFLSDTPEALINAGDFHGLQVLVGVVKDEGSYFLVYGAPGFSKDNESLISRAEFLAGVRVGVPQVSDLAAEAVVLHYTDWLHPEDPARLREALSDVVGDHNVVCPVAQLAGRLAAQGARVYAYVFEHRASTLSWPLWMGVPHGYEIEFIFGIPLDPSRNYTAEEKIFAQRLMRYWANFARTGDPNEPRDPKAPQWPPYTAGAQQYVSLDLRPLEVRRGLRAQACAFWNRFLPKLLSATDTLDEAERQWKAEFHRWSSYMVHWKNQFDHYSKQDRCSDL

Columns and labels:
[1] = biological target: human butyrylcholinesterase (BChE) (Homo sapiens, UniProt P06276)
[2] = biological target: human acetylcholinesterase (AChE) (Homo sapiens, UniProt P22303)
[3] = biological target: cyclosarin-inhibited human BChE (Homo sapiens, UniProt P06276); experiment: Reactivation of cyclosarin-inhibited BChE; settings: 0.1 mM oxime; for Observed reactivation rate (kobs), ranking: cyclosarin-inhibited BChE; for Reactivation of cyclosarin-inhibited BChE: in two hours of reactivation

Row | Compound | Ki [1] [µM] | Ki [2] [µM] | Observed reactivation rate (kobs), ranking [3] | Reactivation of cyclosarin-inhibited BChE [3] | Reactivator quality (cyclosarin-inhibited BChE) [3]
1 | COc1ccc(/C=C/c2ccc(/C=N\O)s2)cc1 | 172 | 54 | fastest reactivation | up to 70% | –
2 | Cc1ccc(/C=C/c2ccc(/C=N\O)s2)cc1 | 322 | 41 | – | – | –
3 | N#Cc1ccc(/C=C/c2ccc(/C=N\O)s2)cc1 | 44 | 158 | – | – | –
4 | O/N=C/c1ccc(/C=C/c2ccc(Cl)cc2)s1 | 573 | 52 | – | – | –
5 | cys,syn-5-(4-dimethylaminostyryl)thiophene-2-carbaldehyde oxime | 89 | 39 | – | – | poor reactivator
6 | trans,anti-5-(4-chlorostyryl)thiophene-2-carbaldehyde oxime | 482 | 76 | fastest reactivation | up to 70% | –
7 | trans,syn-5-(4-methoxystyryl)thiophene-2-carbaldehyde oxime | 271 | 67 | – | – | –
8 | trans,syn-5-(4-methylstyryl)thiophene-2-carbaldehyde oxime | 355 | 46 | – | – | –
